Measurements from ChEMBL document CHEMBL1138351, “Small, potent, and selective diaryl phosphonate inhibitors for urokinase-type plasminogen activator with in vivo antimetastatic properties” (J Med Chem, 2007).

The chains behind the UniProt entries cited, without tags or fusion partners.
UniProt P00742, whole entry: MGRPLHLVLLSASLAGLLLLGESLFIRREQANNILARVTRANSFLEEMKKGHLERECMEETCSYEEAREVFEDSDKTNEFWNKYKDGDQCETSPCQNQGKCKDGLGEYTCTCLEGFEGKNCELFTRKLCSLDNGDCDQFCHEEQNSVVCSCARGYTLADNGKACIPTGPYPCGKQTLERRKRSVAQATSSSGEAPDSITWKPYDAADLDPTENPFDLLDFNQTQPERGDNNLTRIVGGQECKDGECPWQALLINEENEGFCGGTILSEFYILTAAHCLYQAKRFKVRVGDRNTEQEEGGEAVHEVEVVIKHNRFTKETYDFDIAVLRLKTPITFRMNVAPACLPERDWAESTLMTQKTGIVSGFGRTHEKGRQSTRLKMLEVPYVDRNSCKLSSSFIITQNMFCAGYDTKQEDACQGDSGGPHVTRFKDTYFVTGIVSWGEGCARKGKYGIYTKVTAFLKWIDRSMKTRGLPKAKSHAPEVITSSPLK
UniProt P00750, whole entry, looked up: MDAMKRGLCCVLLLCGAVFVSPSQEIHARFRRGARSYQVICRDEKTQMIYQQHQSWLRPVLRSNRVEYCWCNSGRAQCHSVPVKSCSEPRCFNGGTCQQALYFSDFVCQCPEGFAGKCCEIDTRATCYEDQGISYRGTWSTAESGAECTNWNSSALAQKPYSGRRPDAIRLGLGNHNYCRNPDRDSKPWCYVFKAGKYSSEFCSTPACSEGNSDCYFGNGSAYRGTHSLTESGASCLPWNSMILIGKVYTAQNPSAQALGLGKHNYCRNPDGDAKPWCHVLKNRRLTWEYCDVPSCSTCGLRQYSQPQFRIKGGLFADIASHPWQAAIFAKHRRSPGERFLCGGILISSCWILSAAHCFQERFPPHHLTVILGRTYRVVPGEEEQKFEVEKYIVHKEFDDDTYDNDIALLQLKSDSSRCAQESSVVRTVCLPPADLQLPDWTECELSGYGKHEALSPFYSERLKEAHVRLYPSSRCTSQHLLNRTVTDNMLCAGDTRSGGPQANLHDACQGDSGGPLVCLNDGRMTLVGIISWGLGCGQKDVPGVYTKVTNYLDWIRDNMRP
UniProt P00747, whole entry: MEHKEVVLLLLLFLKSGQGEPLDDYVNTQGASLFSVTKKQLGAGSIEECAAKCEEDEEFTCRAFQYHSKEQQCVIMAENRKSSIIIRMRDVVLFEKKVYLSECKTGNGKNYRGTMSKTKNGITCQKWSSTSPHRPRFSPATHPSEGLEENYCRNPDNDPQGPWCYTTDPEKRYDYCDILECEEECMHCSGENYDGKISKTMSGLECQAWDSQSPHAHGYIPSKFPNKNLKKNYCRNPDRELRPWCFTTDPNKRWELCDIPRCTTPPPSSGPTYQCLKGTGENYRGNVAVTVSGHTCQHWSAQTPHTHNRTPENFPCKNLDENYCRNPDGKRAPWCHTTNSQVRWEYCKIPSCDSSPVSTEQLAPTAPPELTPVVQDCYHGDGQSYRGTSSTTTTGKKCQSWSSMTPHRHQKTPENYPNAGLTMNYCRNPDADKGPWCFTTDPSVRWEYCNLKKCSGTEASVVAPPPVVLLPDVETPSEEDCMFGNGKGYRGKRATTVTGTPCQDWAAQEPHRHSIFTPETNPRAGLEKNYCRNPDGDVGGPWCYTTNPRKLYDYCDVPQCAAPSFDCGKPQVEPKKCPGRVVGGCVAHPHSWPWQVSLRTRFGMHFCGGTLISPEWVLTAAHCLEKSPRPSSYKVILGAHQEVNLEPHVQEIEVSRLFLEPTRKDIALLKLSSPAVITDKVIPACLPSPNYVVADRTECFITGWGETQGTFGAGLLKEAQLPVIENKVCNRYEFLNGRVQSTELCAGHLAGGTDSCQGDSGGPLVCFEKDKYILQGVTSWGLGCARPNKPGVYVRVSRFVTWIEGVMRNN

What was measured:
Coagulation factor X = Coagulation factor X (Homo sapiens, UniProt P00742); test: Inhibition of factor 10a at 250 uM
[1] = biological target: Urokinase-type plasminogen activator (Homo sapiens, UniProt P00749)
[2] = biological target: Tissue-type plasminogen activator (Homo sapiens, UniProt P00750); test: Inhibition of human recombinant tPA at 250 uM
Plasminogen = Plasminogen (Homo sapiens, UniProt P00747); test: Inhibition of human plasmin at 250 uM
Prothrombin = Prothrombin (Homo sapiens, UniProt P00734); test: Inhibition of human thrombin at 250 uM
Summary of the method: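 Human plasma thrombin was assayed at 37 °C in Tris pH 8.3. […] Initial rate was read at 405 nm, in duplicate. IC50 was obtained from a four-parameter logistic fit.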

Row | SMILES | inhibition (Coagulation factor X) [%] | further results
1 | COC(=O)NC(Cc1ccc(NC(=N)N)cc1)P(=O)(Oc1ccccc1)Oc1ccccc1 (stereo not drawn) | 57 | –
2 | CC(=O)NC(Cc1ccc(NC(=N)N)cc1)P(=O)(Oc1ccccc1)Oc1ccccc1 (stereo not drawn) | 37 | –
3 | COC(=O)NC(Cc1ccc(NC(=N)N)cc1)P(=O)(Oc1ccc(NC(C)=O)cc1)Oc1ccc(NC(C)=O)cc1 (stereo not drawn) | – | IC50 [1]: 3.4 nM
4 | N=C(N)Nc1ccc(CC(N)P(=O)(Oc2ccccc2)Oc2ccccc2)cc1 (stereo not drawn) | 11 | inhibition [2]: 32%; inhibition (Plasminogen): 31%; inhibition (Prothrombin): 41%
5 | CCOC(=O)NC(Cc1ccc(NC(=N)N)cc1)P(=O)(Oc1ccccc1)Oc1ccccc1 (stereo not drawn) | 62 | –
